Literature values, collected in patent publication US20120052135A1, “Phosphate Adsorbent” (VIFOR (INTERNATIONAL) AG, priority 2009, published 2012).

Settings: haemodialysis patients, oral iron salts

In the case of ferrous sulphate, the “absorption rate of iron” value is listed as “approximately 1%”.
